Chains of the proteins cited; added tags and fusions are not shown.
UniProt E9Q401, whole entry: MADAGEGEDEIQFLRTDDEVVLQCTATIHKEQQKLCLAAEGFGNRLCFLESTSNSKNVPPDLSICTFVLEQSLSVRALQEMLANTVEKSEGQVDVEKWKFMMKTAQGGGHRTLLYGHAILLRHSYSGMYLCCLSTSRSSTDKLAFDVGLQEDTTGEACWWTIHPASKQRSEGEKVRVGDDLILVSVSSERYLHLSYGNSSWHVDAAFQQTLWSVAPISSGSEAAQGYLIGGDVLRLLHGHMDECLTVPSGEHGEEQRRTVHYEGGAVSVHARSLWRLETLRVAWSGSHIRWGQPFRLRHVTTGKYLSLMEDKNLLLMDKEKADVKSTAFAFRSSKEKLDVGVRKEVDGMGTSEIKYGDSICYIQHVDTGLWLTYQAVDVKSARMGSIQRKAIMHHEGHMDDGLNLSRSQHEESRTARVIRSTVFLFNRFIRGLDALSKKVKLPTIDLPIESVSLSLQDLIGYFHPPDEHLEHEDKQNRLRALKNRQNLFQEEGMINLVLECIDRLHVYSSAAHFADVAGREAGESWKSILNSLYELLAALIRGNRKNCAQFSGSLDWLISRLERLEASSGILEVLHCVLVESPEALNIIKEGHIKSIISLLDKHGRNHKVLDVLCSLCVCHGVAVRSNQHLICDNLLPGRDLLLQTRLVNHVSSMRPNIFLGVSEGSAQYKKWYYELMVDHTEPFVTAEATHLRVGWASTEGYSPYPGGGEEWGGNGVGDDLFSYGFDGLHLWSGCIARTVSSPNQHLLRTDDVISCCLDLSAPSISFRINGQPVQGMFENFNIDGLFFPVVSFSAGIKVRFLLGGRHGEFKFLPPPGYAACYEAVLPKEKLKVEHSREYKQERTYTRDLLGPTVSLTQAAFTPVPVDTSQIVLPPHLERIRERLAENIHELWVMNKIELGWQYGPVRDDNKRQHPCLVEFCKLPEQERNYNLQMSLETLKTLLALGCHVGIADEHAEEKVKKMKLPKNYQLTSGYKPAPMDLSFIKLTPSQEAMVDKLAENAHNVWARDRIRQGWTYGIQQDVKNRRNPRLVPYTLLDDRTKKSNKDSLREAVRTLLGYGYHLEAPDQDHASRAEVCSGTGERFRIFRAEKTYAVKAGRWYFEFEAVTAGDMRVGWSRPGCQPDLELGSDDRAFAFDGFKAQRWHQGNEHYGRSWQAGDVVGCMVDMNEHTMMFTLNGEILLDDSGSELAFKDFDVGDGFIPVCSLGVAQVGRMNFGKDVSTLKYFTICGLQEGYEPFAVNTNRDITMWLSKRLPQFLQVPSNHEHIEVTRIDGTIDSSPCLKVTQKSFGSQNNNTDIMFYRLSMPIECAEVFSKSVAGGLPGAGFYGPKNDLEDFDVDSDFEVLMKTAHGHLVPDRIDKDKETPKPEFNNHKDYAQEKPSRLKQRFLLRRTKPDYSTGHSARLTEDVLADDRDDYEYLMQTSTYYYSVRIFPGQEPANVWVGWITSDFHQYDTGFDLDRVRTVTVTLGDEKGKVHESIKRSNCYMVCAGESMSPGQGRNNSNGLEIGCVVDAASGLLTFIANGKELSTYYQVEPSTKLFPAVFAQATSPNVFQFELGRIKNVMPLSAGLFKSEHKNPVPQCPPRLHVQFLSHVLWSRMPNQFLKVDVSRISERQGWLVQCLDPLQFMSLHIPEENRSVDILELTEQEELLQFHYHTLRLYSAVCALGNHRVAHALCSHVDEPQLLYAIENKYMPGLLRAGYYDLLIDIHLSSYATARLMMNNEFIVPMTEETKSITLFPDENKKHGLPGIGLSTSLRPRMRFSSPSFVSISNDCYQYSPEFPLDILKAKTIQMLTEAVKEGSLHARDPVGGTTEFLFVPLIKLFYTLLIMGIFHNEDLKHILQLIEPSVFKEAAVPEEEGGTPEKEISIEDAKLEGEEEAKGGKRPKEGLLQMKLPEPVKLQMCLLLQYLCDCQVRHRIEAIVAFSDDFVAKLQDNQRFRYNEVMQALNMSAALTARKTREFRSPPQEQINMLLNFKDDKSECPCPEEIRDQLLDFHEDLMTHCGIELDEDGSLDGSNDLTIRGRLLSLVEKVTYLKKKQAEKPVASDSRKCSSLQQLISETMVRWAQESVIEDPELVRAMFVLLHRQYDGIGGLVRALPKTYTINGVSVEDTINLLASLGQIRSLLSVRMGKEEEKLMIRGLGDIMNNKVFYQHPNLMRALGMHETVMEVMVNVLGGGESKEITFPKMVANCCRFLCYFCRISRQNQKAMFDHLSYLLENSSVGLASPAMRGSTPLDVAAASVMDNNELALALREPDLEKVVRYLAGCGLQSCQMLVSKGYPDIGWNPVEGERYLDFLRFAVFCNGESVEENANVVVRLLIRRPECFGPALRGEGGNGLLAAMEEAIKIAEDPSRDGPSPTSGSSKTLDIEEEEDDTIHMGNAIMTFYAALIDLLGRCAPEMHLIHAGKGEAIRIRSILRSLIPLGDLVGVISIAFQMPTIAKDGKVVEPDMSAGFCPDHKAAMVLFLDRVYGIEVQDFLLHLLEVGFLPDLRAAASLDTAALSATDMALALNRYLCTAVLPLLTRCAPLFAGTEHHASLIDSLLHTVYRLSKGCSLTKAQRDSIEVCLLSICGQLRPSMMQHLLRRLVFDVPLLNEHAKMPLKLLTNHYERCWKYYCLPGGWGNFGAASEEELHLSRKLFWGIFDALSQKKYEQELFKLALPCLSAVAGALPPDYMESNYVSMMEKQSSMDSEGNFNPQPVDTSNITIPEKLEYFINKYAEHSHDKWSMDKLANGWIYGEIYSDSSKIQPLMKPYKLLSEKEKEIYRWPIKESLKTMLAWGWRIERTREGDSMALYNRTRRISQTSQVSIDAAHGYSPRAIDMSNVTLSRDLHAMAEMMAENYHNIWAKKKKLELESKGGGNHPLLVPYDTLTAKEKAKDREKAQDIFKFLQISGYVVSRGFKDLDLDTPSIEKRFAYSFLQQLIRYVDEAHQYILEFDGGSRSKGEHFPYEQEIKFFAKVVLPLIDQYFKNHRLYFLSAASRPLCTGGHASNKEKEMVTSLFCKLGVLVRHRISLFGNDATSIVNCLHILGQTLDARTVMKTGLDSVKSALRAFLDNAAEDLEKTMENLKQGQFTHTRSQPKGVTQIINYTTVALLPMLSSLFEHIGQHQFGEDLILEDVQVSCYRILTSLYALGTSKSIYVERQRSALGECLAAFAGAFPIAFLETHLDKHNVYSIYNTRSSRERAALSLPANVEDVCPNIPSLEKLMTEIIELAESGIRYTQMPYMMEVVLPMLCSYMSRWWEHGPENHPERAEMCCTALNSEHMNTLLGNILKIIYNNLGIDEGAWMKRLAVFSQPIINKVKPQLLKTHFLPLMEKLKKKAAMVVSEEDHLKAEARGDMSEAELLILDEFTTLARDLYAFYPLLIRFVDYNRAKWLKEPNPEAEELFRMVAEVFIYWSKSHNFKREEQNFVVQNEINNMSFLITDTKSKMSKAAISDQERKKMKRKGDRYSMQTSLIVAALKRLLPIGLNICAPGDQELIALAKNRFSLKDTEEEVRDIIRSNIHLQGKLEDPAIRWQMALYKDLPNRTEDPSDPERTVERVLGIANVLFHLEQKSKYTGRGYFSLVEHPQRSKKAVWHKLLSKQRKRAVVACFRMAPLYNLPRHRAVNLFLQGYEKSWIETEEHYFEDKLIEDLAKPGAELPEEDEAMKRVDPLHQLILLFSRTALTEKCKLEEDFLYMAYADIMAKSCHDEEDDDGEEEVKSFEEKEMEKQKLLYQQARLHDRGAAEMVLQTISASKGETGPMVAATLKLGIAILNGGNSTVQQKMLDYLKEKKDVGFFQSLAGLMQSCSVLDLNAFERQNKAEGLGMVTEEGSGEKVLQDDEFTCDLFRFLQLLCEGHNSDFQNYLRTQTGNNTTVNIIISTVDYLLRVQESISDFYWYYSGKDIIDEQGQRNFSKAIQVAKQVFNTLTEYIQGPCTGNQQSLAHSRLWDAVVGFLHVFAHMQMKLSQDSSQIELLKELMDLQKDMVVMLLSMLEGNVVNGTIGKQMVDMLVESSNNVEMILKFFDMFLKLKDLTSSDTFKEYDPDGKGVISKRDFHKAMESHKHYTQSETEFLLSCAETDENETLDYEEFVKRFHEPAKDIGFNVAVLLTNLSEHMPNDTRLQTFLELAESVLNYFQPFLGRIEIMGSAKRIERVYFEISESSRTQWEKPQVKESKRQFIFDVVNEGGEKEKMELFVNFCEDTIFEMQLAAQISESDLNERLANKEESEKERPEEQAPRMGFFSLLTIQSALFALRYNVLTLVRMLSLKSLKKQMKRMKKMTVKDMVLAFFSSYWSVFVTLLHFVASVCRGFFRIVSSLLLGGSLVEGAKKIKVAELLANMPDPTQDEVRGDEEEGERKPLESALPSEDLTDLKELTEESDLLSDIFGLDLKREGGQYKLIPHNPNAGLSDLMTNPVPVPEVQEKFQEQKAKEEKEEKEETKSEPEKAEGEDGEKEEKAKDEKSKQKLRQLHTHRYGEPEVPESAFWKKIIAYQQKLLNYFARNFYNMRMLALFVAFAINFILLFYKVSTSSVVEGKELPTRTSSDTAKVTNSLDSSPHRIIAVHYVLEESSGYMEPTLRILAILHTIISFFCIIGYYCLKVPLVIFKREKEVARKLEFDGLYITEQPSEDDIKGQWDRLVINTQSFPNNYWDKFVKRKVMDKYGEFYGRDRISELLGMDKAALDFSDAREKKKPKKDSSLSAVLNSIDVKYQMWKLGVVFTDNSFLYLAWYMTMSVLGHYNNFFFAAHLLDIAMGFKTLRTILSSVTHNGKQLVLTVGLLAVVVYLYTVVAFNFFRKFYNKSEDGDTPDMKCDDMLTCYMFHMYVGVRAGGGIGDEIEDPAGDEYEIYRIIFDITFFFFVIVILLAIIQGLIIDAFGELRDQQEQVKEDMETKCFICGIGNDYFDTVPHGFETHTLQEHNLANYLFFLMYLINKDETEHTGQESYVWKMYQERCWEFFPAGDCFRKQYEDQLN

In patent publication EP4548971A1, “1,4-BENZOTHIAZEPINES AND RELATED COMPOUNDS WITH CYCLOPROPANOL GROUPS AS MULTI-TARGETED DRUGS” (Georg-August-Universität Göttingen Stiftung Öffentlichen …, priority 2023, dated 2025):

Target: T1, WT RyR2 (Mus musculus, UniProt E9Q401)
T1 construct: expressed in transfected cells
Test: Time-lapse [Ca2+]ER assay (RyR2 R-CEPIA1er assay) in HEK-293 cells
Format: cell-based
Parameters: RyR2 effect class: key to the marks not given beside the values
Procedure: HEK-293 cells stably expressing R-CEPIA1er and WT RyR2 (generous gift from Takashi Murayama, Juntendo University School of Medicine, Tokyo) were cultured in Dulbecco's Modified Eagle medium (DMEM, Thermo Fisher Scientific, Darmstadt, Germany) supplemented with 10% fetal bovine serum (FBS, Thermo Fisher Scientific, Darmstadt, Germany), 0.9% Penicillin/Streptomycin (Merck KGaA, Darmstadt, Germany), 15ug/mL Blasticidine (Invivogen, Toulouse, France), 100 µg/mL Hygromycin (Merck KGaA, Darmstadt, Germany) and 400 µg/mL G418 (Thermo Fisher Scientific, Darmstadt, Germany) in a humidified 5% COz incubator at 37 °C. […]
The fluorescent plate reader [Ca^2+]ER assay was performed according to the slightly modified protocol of Murayama & Kurebayashi [T. Murayama, N. Kurebayashi, Assays for Modulators of Ryanodine Receptor (RyR)/Ca(2+) Release Channel Activity for Drug Discovery for Skeletal Muscle and Heart Diseases. […] After the cells were inducted with Doxycycline for 24 h, changes in ER calcium concentrations [Ca^2+]ER were measured on a multiwell plate reader TECAN Spark 20M at 37 °C. […] The time courses were recorded in each well. Fluorescence was evoked by 560 nm excitation wavelength and collected in a bottom-read mode at 610 nm. Data was recorded every 10 s, exposure - 20 flashes, excitation bandwidth - 20 nm, emission bandwidth - 20 nm. […]

COc1ccc2c(c1)CN(C)CCS2 [Compound S107, reference compound]
RyR2 effect class (25 µM in RyR2 R-CEPIA1er assay): +++
effect on [Ca^2+]ER (R-CEPIA1er fluorescence), in words (1 mM, vs. 0.1 v/v% DMSO): increase in R-CEPIA1er fluorescence
